# Reference: patent US9663510B2, “Substituted triazolopyridines and their use as TTK inhibitors” (Bayer Intellectual Property GmbH, priority 2011, dated 2017)
# Tested on: HeLa human cervical tumor cells
# Test: HeLa cell proliferation assay (crystal violet)
# Assay type: cell-based
# Settings: 96 h, 4 days incubation, read-out: Inhibition of cell proliferation, cell Line: HeLa IC50
# Protocol: Cultivated tumor cells (MCF7, hormone dependent human mammary carcinoma cells, ATCC HTB22; NCI-H460, human non-small cell lung carcinoma cells, ATCC HTB-177; DU 145, hormone-independent human prostate carcinoma cells, ATCC HTB-81; HeLa-MaTu, human cervical carcinoma cells, EPO-GmbH, Berlin; HeLa-MaTu-ADR, multidrug-resistant human cervical carcinoma cells, EPO-GmbH, Berlin; HeLa human cervical tumor cells, ATCC CCL-2; B16F10 mouse melanoma cells, ATCC CRL-6475) were plated at a density of 5000 cells/well (MCF7, DU145, HeLa-MaTu-ADR), 3000 cells/well (NCI-H460, HeLa-MaTu, HeLa), or 1000 cells/well (B16F10) in a 96-well multititer plate in 200 μl of their respective growth medium supplemented 10% fetal calf serum. […] Cell proliferation was determined by staining the cells with crystal violet: the cells were fixed by adding 20 μl/measuring point of an 11% glutaric aldehyde solution for 15 minutes at room temperature. […] The extinction was determined by photometry at a wavelength of 595 nm. The change of cell number, in percent, was calculated by normalization of the measured values to the extinction values of the zero-point plate (=0%) and the extinction of the untreated (0 μm) cells (=100%). The IC50 values were determined by means of a 4 parameter fit using the company's own software.
structure (smiles),measurement,value
"COc1cc(N2CCOC2=O)ccc1Nc1nc2ccc(-c3ccc(NC(=O)[C@H](C)c4ccc(F)cc4)cc3)cn2n1 [Example 01.09, (2R)-2-(4-fluorophenyl)-N-[4-(2-{[2-methoxy-4-(2-oxo-1,3-oxazolidin-3-yl)phenyl]amino}[1,2,4]triazolo[1,5-a]pyridin-6-yl)phenyl]propanamide]",IC50,< 400 nM
